Target: AURKA-TPX2 interaction (His-tagged AURKA123–403 / TAMRA-labelled TPX2 1–43) (Homo sapiens, UniProt O14965)
Test: Fluorescence anisotropy (FA) competition assay: displacement of TAMRA-TPX2 1-43 from AURKA123-403
Details: for IC50: read-out: Average IC50, Supplementary Table 1, FA assay; for Ki: read-out: Calculated Ki, Supplementary Table 1, free-concentration corrected Cheng-Prusov

Sequences of proteins named here, by UniProt entry; tags and fusion partners are left off. Residues count along the entry.
UniProt O14965, 123-403 limits assumed: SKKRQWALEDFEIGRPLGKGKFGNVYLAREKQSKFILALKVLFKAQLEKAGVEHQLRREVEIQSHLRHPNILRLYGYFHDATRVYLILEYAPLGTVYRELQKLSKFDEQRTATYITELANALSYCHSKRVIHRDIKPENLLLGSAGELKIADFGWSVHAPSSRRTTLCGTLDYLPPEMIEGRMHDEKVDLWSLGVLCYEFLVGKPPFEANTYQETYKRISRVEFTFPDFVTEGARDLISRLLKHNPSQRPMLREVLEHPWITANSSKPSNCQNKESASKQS

Question: `O=C(O)c1cc(-c2cccc(F)c2)nc2ccc(Br)cc12` was tested. Which IC50 did it give?
Answer: The IC50 was greater than 500 µM.

Question: What about the Ki of the same compound?
Answer: Its Ki is greater than 100 µM.

Question: Which results are given for `O=C(O)c1cc(-c2cccnc2)nc2ccc(Cl)cc12`?
Answer: IC50: 163 µM; Ki: 35.5 µM

Question: For `O=C(O)c1cc(-c2cc(F)cc(F)c2)nc2ccccc12`, which IC50 is on record?
Answer: Its IC50 is 36 µM.

Question: What about the Ki of the same compound?
Answer: The Ki was 7.8 µM.

— article PMC4919790, “Allosteric modulation of AURKA kinase activity by a small-molecule inhibitor of its protein-protein interaction with TPX2” (Scientific Reports, 2016)
